Results as given in patent US20110206732A1 (priority 2007, published 2011).

Key:
[1] = animal models; cited from earlier work
THP-1 cell line = format: cell-based; details: 20% (w/v) albumin, 24 hour incubation, trypan blue
[2] = system: Primary canine hepatocarcinoma cells; format: cell-based; details: 20% (w/v) albumin, 24 hour incubation, trypan blue
H9 cell line = format: cell-based; details: 20% (w/v) albumin, 24 hour incubation, trypan blue
[3] = system: different neoplastic cell types, both in suspension and adherent; assay: Light microscopy, hematoxylin-eosin staining, death of cultured cells; format: cell-based; details: albumin in physiologic solution 2% to 50% (preferably 10% to 20%) w/v, within 8-24 hours of incubation
Procedure: in suspension: lymphoblastic leukaemia cell lines such as H9, MT2, MT4, THP-1 and U937 monocytic leukaemia cell lines, K562 erythroid leukaemia cell lines;
adherent: Hep-G2 hepatocarcinoma cell lines, primary canine hepatocarcinoma cells, primary human mammary tumour cells, primary canine mammary tumour cells, human glioblastoma cells.
The cells were washed three times by centrifuging at 160 g for 10 min at room temperature in phosphate buffer (PBS, pH 7.2) and resuspended into 50 ml tubes (Nunc, Kamstrup, Denmark) at a final concentration of 10×10^6 cells/ml, again in phosphate buffer (PBS, pH 7.2).
The cells were resuspended at a final concentration of 1×10^6 cells/ml into six-well plates (Lab-Tek chamber slides, Nunc, Kamstrup, Denmark) in 4 ml/well of final solution consisting of common RPMI 1640 culture medium (GIBCO) supplemented with: • 10% FCS (Celbio, Milan, Italy); • 100 units/ml penicillin; • 100 μg/ml streptomycin; • 160 mg/L gentamycin (Schering-Plough, Milan, Italy); • 2 mM L-glutamine (Life Technologies; growth medium).
The cells were incubated for 3 days in a thermostatically controlled Heraeus incubator at a temperature of 37° C. under an atmosphere having a constant supply of 5% CO2 (v/v in air).
The cells were monitored hourly for a total of three days of culture. […]

MT4 cell line = format: cell-based; details: 20% (w/v) albumin, 24 hour incubation, trypan blue
Human glioblastoma cells = format: cell-based; details: 20% (w/v) albumin, 24 hour incubation, trypan blue
HEP-G2 cell line = format: cell-based; details: 20% (w/v) albumin, 24 hour incubation, trypan blue
[4] = system: Primary human mammary tumour cells; format: cell-based; details: 20% (w/v) albumin, 24 hour incubation, trypan blue
U937 cell line = format: cell-based; details: 20% (w/v) albumin, 24 hour incubation, trypan blue
K562 cell line = format: cell-based; details: 20% (w/v) albumin, 24 hour incubation, trypan blue
MT2 cell line = format: cell-based; details: 20% (w/v) albumin, 24 hour incubation, trypan blue
[5] = system: Primary canine mammary tumour cells; format: cell-based; details: 20% (w/v) albumin, 24 hour incubation, trypan blue

albumin
acute toxicity [1]: No signs of acute toxicity | MORTALITY (THP-1 cell line): 82% | MORTALITY [2]: 72% | MORTALITY (H9 cell line): 90% | VIABILITY (H9 cell line): 10% | cultured cells caused to die [3]: 50-100% | MORTALITY (MT4 cell line): 81% | MORTALITY (Human glioblastoma cells): 89% | MORTALITY (HEP-G2 cell line): 80% | VIABILITY (HEP-G2 cell line): 20% | MORTALITY [4]: 88% | VIABILITY [4]: 12% | MORTALITY (U937 cell line): 86% | MORTALITY (K562 cell line): 81% | MORTALITY (MT2 cell line): 85% | MORTALITY [5]: 70% | VIABILITY [5]: 30%
